From paper doi:10.1101/108498

Sequences of proteins named here, by UniProt entry; tags and fusion partners are left off. A change or cut given only in a name is not applied to a line headed by its entry. Residues count along the entry.
UniProt P38920: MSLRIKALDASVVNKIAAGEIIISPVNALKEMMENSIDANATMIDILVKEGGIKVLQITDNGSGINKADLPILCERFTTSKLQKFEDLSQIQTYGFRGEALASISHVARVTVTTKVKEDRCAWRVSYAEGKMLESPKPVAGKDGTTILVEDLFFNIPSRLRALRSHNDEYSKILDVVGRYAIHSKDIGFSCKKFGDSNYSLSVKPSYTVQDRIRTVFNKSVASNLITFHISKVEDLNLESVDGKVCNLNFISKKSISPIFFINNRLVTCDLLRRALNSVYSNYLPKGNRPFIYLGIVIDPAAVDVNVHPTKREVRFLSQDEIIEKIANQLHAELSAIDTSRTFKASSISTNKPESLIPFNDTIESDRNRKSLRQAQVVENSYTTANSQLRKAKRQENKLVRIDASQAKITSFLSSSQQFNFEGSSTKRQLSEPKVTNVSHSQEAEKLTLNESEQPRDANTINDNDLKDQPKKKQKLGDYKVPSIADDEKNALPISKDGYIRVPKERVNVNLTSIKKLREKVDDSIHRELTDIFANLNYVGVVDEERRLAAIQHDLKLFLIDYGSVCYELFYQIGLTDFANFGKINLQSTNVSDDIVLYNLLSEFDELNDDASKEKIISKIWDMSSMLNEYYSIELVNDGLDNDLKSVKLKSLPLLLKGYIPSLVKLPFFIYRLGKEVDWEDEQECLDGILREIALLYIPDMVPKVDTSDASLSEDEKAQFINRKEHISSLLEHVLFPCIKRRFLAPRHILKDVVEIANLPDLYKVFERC
UniProt Q12083, 481-715: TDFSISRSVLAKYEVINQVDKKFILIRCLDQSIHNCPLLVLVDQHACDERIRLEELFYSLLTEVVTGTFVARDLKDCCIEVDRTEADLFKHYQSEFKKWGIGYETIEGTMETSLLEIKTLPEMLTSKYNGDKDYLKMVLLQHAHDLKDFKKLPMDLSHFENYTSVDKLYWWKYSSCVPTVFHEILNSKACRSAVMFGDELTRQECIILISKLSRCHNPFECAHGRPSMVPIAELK

Biological target: lexA-Mlh1 (S. cerevisiae) (UniProt P38920)
Assay: two-hybrid

Substance “Gal4-Mlh3 (amino acids 481-715) (from UniProt Q12083 481-715) (domain or fragment)” has a β-galactosidase activity in the two-hybrid assay of 2.6 Miller units.
